Measurements taken from patent US11026925B2, “Angiotensin II receptor antagonist metabolite and NEP inhibitor composite and preparation method thereof” (SHENZHEN SALUBRIS PHARMACEUTICALS CO. LTD, priority 2016, dated 2021).

Key:
[1] = system: animal model with heart failure (ligation of left anterior descending coronary artery); assay: anti-heart failure activity (long term, chronic) in animal model (rat); format: in vivo
[2] = system: animal model with heart failure (ligation of left anterior descending coronary artery); assay: anti-heart failure activity (short term, acute) in animal model (rat); format: in vivo; settings: for mAP / mLVP: 7 days before and 3 days after ligation, measured Day 11; for improvement effect on mAP and mLVP / effect on lowering blood pressure compared with untreated animal group: short-term administration, rat
Protocol: The animal model with heart failure using ligation of left anterior descending coronary artery was prepared, the therapeutic drug to the modeling animal was administrated by pre-gavage, once per day for 7 continuous days, and was continuously administrated for three days after successful modeling.
SD male rats aged 6-week old;
Pre-test preparation: All animals were divided into 5 groups by randomized blocks, 6 rats in each group, and the animals were acclimated for 3 days before test treatment; Experimental process: Therapeutic drug was given to the test animals by pre-gavage, once per day for 7 continuous days. Operation was conducted on Day 8, the animals were anesthetized, trachea was connected to a respirator, electrocardiograph (ECG) was connected for real-time recording, thoracic cavity was opened between the 3rd and 4th ribs, left anterior descending coronary artery was ligated, ST segment elevation of ECG indicated successful ligation, the thoracic cavity was closed, and the skin was sutured;
The animals were anesthetized on Day 11, ECG was measured, and then arterial pressure and left ventricular pressure were measured by carotid artery intubation.

[3] = Hygroscopicity (plain sample) at RH 75% and RH 85%; format: physicochemical; settings: Day 0, plain sample
[4] = Flowability (angle of repose, bulk density); format: physicochemical; settings: samples crushed to particle size distribution similar to LCZ696
[5] = water, ethanol, ethanol-water and other common solvents
[6] = 40° C., 75% RH, with package
[7] = 22 mg/kg (compound group 1) gavage once per day
[8] = 67 mg/kg (compound group 2) gavage once per day
[9] = 22 mg/kg (compound group 1) gavage once per day for 4 weeks
[10] = 67 mg/kg (compound group 2) gavage once per day for 4 weeks

Molecule	mAP [2, 7]	mLVP [2, 7]	mAP [2, 8]	mLVP [2, 8]	improvement effect on mAP and mLVP / effect on lowering blood pressure compared with untreated animal group [2]	water content, RH 75% Day 0 [3]	water content, RH 85% Day 0 [3]	Angle of repose [4]	Bulk density [4]	Ejection fraction [1, 9]	Heart rate [1, 9]	Myocardial fibrosis [1, 9]	Thickness of heart wall [1, 9]	Ejection fraction [1, 10]	Heart rate [1, 10]	Myocardial fibrosis [1, 10]	Thickness of heart wall [1, 10]	solubility property compared with EXP3174 [5]	Accelerated stability data, Day 0 [6]	Accelerated stability data, Day 30 [6]	other results
CCCCC(=O)N(Cc1ccc(-c2ccccc2-c2nnn[n-]2)cc1)[C@H](C(=O)[O-])C(C)C.CCOC(=O)[C@H](C)C[C@@H](Cc1ccc(-c2ccccc2)cc1)NC(=O)CCC(=O)[O-].O.[Na+].[Na+].[Na+] [LCZ696, reference compound]	–	–	–	–	–	–	–	–	–	–	–	–	–	–	–	–	–	–	–	–	Thickness of heart wall ([1]; 68 mg/kg gavage once per day for 4 weeks): 0.169 cm
(EXP3174.AHU377)^3−.1.5Ca^2+.2.5H2O [Example 2]	85 mmHg	53 mmHg	78 mmHg	43 mmHg	significant	4.9%	4.9%	44.79 °	0.641 g/mL	66.6%	414.9 beats/min	7.56%	0.178 cm	65.9%	423.2 beats/min	4.22%	0.164 cm	significantly improved	99.85%	99.79%	Accelerated stability data, Day 180 [6]: 99.84%
(EXP3174.AHU377)^3−.1.5Ca^2+.2H2O [Example 3]	87 mmHg	52 mmHg	75 mmHg	45 mmHg	significant	3.83%	3.83%	43.64 °	0.630 g/mL	65.3%	417.3 beats/min	7.37%	0.181 cm	66.8%	422.5 beats/min	4.17%	0.169 cm	significantly improved	99.91%	99.94%	Accelerated stability data, Day 180 [6]: 99.90%
